{"source": "patent US20020120242A1", "about": "“Absorbent articles with hydrophilic compositions containing botanicals” (priority 2000, published 2002)", "test_system": "EPIDERM skin culture", "experiment": "MTT viability assay on EPIDERM skin culture after test composition + insult", "conditions": "relative to control + PBS"}
{"smiles": "[Cl-].[Cl-].[Sr+2]", "note": "[Strontium Chloride]", "values": [{"measurement": "Viability (percentage)", "setting": "1% in PBS + protease insult", "value": 85, "unit": "%"}, {"measurement": "Viability (percentage)", "setting": "10% in PBS + protease insult", "value": 82, "unit": "%"}]}
